The series in a line: Acute study in SHR, plasma ANP radioimmunoassay as assessment of MANP. The following applies: for Plasma ANP: after 60-min treatment, mean±SEM. The format is in vivo, rat. As to the method:
Acute Study Protocol in SHR: The cardiorenal and neurohumoral actions of MANP, Fs, or their combination were investigated in the genetic model of hypertension in male SHR (n=6 in each group). Rats were anesthetized in an induction chamber with inhaled Isoflurane 2.5%. During this brief state of anesthesia, the rats were administered IP Inactin 100 mg/kg to maintain anesthesia. An oxygen mask was used until the end of the experiment. The carotid artery was cannulated for arterial pressure measurements and the right jugular vein was cannulated for infusions. Pressures were recorded and analyzed digitally (Sonometrics, London, Ontario, Canada). Via a small incision in the lower abdominal wall, the bladder was cannulated for urine sampling.
Immediately after preparation, a 30-minute equilibration period was started with intravenous inulin infusion. […] After baseline measurements, rats were randomly assigned to ten groups: • Group 1—treated with MANP100; • Group 2—treated with MANP300; • Group 3—treated with MANP600; • Group 4—treated with Fs1; • Group 5—treated with Fs5; • Group 6—treated with Fs10; • Group 7—treated with MANP300+Fs5; • Group 8—treated with MANP300+Fs10; • Group 9—treated with MANP600+Fs10; and • Group 10—treated with inulin, normal saline, or inulin and normal saline. For Groups 1-3, after a 15-minute lead-in of MANP infusion, MANP was continuously infused for a total of 60 minutes. Animals in Groups 4-6 received a single intravenous (IV) bolus administration of Fs. MANP+Fs Groups 7-9 received a single IV bolus injection of Fs followed by a 15-minute lead-in infusion of MANP with a further 60-minute continuous infusion of MANP at the same dose. The control animals (Group 10) received a continuous inulin infusion as an MANP control, a single IV bolus injection of 0.9% normal saline as a Fs control, or the combination of a single IV bolus of 0.9% normal saline and continuous inulin infusion as a control for MANP+Fs treatment.
Neurohormonal and Electrolyte Analysis: Plasma ANP was measured by radioimmunoassay (Phoenix Pharmaceuticals) as an assessment of MANP, as the ANP RIA fully detects MANP (Burnett et al. (1986) Science 231(4742):1145-1147). Plasma and urinary cGMP (Enzo Life Sciences) and aldosterone (DRG International, Springfield, NJ) were determined by ELISA. Inulin concentrations were measured using the anthrone method, as described elsewhere (Fuhr et al. (1955) Klin. Wochenschr 33:729-730). GFR was calculated by inulin clearance. Electrolytes were measured by flame photometry (IL943, Instrumentation Laboratory, UK). All measurements were performed according to manufacturer instructions.

SMILES strings stand for the structures.

On to `CC[C@H](C)[C@@H]1NC(=O)[C@H](CCCNC(=N)N)NC(=O)[C@H](CC(=O)O)NC(=O)[C@H](CCSC)NC(=O)[C@H](CCCNC(=N)N)NC(=O)CNC(=O)CNC(=O)[C@H](Cc2ccccc2)NC(=O)[C@@H](NC(=O)[C@H](CO)NC(=O)[C@H](CO)NC(=O)[C@H](CCCNC(=N)N)NC(=O)[C@H](CCCNC(=N)N)NC(=O)[C@H](CC(C)C)NC(=O)[C@@H](N)CO)CSSC[C@@H](C(=O)N[C@@H](CC(N)=O)C(=O)N[C@@H](CO)C(=O)N[C@@H](Cc2ccccc2)C(=O)N[C@@H](CCCNC(=N)N)C(=O)N[C@@H](Cc2ccc(O)cc2)C(=O)N[C@@H](CCCNC(=N)N)C(=O)N[C@H](C(=O)N[C@H](C(=O)N[C@@H](C)C(=O)N[C@@H](CCCNC(=N)N)C(=O)N[C@@H](CCC(=O)O)C(=O)N[C@@H](CC(=O)O)C(=O)N[C@@H](CCCCN)C(=O)N[C@@H](CCC(N)=O)C(=O)NCC(=O)N[C@@H](Cc2c[nH]c3ccccc23)C(=O)N[C@@H](C)C(=O)O)[C@@H](C)O)[C@@H](C)CC)NC(=O)CNC(=O)[C@H](CC(C)C)NC(=O)CNC(=O)[C@H](CO)NC(=O)[C@H](CCC(N)=O)NC(=O)[C@H](C)NC(=O)CNC1=O` [MANP], for which the “plasma ANP immunoreactivity as a measure of MANP immunoreactivity” value (MANP infusion alone or in combination with Fs) was “significant increases”. Further, the “Plasma ANP” value reads like this: (MANP 100 pmol/kg/min) 430 ± 99 pg/mL; (MANP 300 pmol/kg/min) 2577 ± 568 pg/mL; (MANP 600 pmol/kg/min) 20611 ± 3041 pg/mL.

The record behind these values is patent US20250381249A1, “COMBINATION TREATMENT FOR RESISTANT HYPERTENSION” (Mayo Foundation for Medical Education and Research, priority 2018, published 2025).
